This test can be described thus: Reactivity with cysteine at 0.1 mM in 0.1M phosphate buffer assessed as amount of compound unreacted by HPLC.

This passage reports Activity results from ChEMBL document CHEMBL1155233, “Structure mechanism insights and the role of nitric oxide donation guide the development of oxadiazole-2-oxides as therapeutic agents against schistosomiasis” (J Med Chem, 2009).

Calls of active or inactive are those of the source. No cut-off for these calls is given here.

Regarding `N#Cc1c(-c2ccc(-c3no[n+]([O-])c3C#N)s2)no[n+]1[O-]`, the result was Active.
